Reference: patent publication US20060275503A1, “Combination treatment with strontium for the prophylaxis and/or treatment of cartilage and/or bone conditions” (Nordic Bone A/S, priority 2003, published 2006)

Procedure: The solubility of the organic carboxylic acid strontium salts, were measured in water. The solubility of these salts was also measured as a function of temperature. This was performed by incubating the saturated solutions of the salts in temperature controlled incubators.
The buffered solutions were immersed into a bath of water temperature controlled at either room temperature (22-24° C.), at 30° C. or at 40° C. […] In order to eliminate any reminiscent strontium chloride influence on the determination of solubility, all the precipitate was collected at the bottom of the test tubes and the solutions above the precipitate were carefully removed and substituted by fresh solutions. […] From these solutions, the dissolved proportions of the strontium salt were collected in volumes of 1 mL at the specified temperature. […]
Two methods were used for quantification of strontium in solutions: Flame Atomic Absorption Spectrometry (F-AAS), and the more sensitive inductively-coupled-plasma-mass spectrometry (ICP-MS).
The solubilities were investigated as described above, and strontium content in the saturated solutions determined as described here below.
Some of the very soluble strontium salts were further diluted before analysis by F-AAS. […] Strontium was measured at a slit with of 0.2 nm, the wavelength was 460.8 nm operated at an energy of 58 and a current of 8 mA. […]

strontium α-ketoglutarate [α-ketogluterate]
SOLUBILITY AT ROOM TEMPERATURE (22-24° C. mg/L) In water: 1316 mg/L
